p-CIP stab down: p/CIP-EGFP fusion destabilizers, primary screen, fluorescence, F442A cells. Q05BA5. 16 h. 290,000 compounds, 0.01% hits. decrease of EGFP signal, % at 10 µM;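 active means EGFP signal decrease of at least 30% at 10 µM or well 3 SD below plate mean, unless failing retest; inactive means the rest, including hits failing retest or dose response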
Exocytosis inh: LAMP-1 surface exposure blockers, TALL-104 cells – cell-based, flow cytometry, MLPCN library, primary screen; TALL-104 LAMP-1 surface exposure; cells stimulated with thapsigargin and PMA; inhibition, % at 10 µM; 360,000 compounds, 0.66% hits; AID 651702, 2012;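 active means inhibition above about 55%, limit read from the data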
ABCB6 inh 2: ABCB6 transporter inhibitors, primary screen, K562-ABCB6 cells, flow cytometry, MLPCN library; ATP-binding cassette sub-family B member 6 (Homo sapiens), Q9NP58; K562-ABCB6 porphyrin accumulation, 1 h; hits give low values; fluorescence ratio to DMSO, % at 10 µM; 360,000 compounds, 0.19% hits;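 active means fluorescence ratio to DMSO below 75%, the collection mean minus 3 SD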;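 further: signal is porphyrin accumulated inside mitochondria; lower ratio means ABCB6 inhibition with less porphyrin fluorescence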
PKA-R1A act: activators of PKA-R1A holoenzyme, primary screen, biochemical, fluorescence polarization, Cy5-IP20, bovine R1A, mouse PKAc. cAMP-dependent protein kinase type I-alpha regulatory subunit (Bos taurus) + …. PKA-R1A dissociation; scaled: DMSO 0%, 113 µM cGMP 100%. activation, % at 11.4 µM. 340,000 compounds, 0.083% hits. AID 504707, 2011;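 active means percent activation above the mean of all tested compounds plus 3 SD, cut at about 19% in these data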;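 further: higher means more PKAc released from R1A so a rise in polarization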
Yeast UUG start-1: modulators of yeast start codon fidelity, primary screen, whole organism, S. cerevisiae, single point, plate reader; S. cerevisiae UUG-firefly luciferase reporter, luminescence/redox ratio; activity score, % at 18.7 µM; actives 0.13% (n = 350,000);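 active means replicate mean at a twofold rise or more, about +100% in these data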;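 further: firefly luciferase made from a UUG start codon reports start codon fidelity; reporter light over untreated wells divided by growth signal over untreated wells; some hits fall short of that in this replicate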
PKA-R2B act: activators of PKA-R2B holoenzyme, primary screen, biochemical, fluorescence polarization, Cy5-IP20, human; cAMP-dependent protein kinase catalytic subunit beta (Homo sapiens) + cAMP-dependent …; PKA-R2B holoenzyme dissociation; R2B truncated from residue 108, S112A mutant; 0% DMSO only, 100% 113 µM cGMP; activation, % at 11.4 µM; 340,000 compounds, 0.079% hits;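 active means activation above a cutoff set at the mean over all compounds plus 3 SD, cut at about 18% in these data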;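 further: higher means more holoenzyme dissociation and a rise in polarization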
Yeast UUG start-2: enhancers of UUG start codon usage in yeast, dose response, S. cerevisiae, UUG firefly luciferase, cherry-pick, set 2 | shares compounds with Yeast UUG start-1 | luminescence, 4 h; 100% means double the DMSO signal | activation, % at 38 µM | 540 tested, under 10 active;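 active means signal increase whose fitted curve reaches an absolute level of 40 at a concentration under 10 µM; inactive means activity opposite to the expected increase, or the rest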
Hits are given with their value. The list is not random: actives were taken first. Their share in the collection is about 0.94%.

`COc1ccc(NC(=O)c2ccc(NS(=O)(=O)c3c(C)noc3C)cc2)cc1OC` gave p-CIP stab down inactive, Exocytosis inh inactive, ABCB6 inh 2 inactive, PKA-R1A act inactive, Yeast UUG start-1 inactive and PKA-R2B act inactive.
`COc1ccc(C/C(C)=N/NC(=O)c2ccc(C)cc2C)cc1` gave p-CIP stab down inactive, Exocytosis inh inactive, ABCB6 inh 2 inactive, PKA-R1A act inactive, Yeast UUG start-1 539, PKA-R2B act inactive and Yeast UUG start-2 inactive.
O=C1NC(Cc2c[nH]c3ccccc23)C(=O)N1Cc1ccccc1 (stereo not drawn) was read as p-CIP stab down inactive, Exocytosis inh inactive, ABCB6 inh 2 inactive, PKA-R1A act inactive, Yeast UUG start-1 inactive and PKA-R2B act inactive.
Screening N#Cc1ccccc1CN1C(=O)NC(Cc2c[nH]c3ccccc23)C1=O (stereo not drawn) returned p-CIP stab down inactive, Exocytosis inh inactive, ABCB6 inh 2 inactive, PKA-R1A act inactive, Yeast UUG start-1 588, PKA-R2B act inactive and Yeast UUG start-2 inactive.
For O=C(CNC(=O)c1cc(=O)[nH]c2ccc(S(=O)(=O)N3CCOCC3)cc12)Nc1ccc(F)c(F)c1 the results were Exocytosis inh inactive, ABCB6 inh 2 inactive, PKA-R1A act inactive, Yeast UUG start-1 108, PKA-R2B act inactive and Yeast UUG start-2 inactive.
COc1cccc(-c2cn(CC[C@H]3CC[C@H](NC(=O)CC4CC4)[C@H](CO)O3)nn2)c1 was read as Yeast UUG start-1 inactive.
O=C(Cc1ccccn1)N[C@H]1CC[C@@H](CCNS(=O)(=O)c2cccc(F)c2)O[C@H]1CO was read as Yeast UUG start-1 inactive.
O=C(Cc1ccccn1)N[C@H]1CC[C@@H](CCNS(=O)(=O)c2cccc(F)c2)O[C@@H]1CO was read as Yeast UUG start-1 243 and Yeast UUG start-2 inactive.
`COCc1cn(CC[C@H]2CC[C@@H](NC(=O)Nc3c(C)noc3C)[C@H](CO)O2)nn1` gave Yeast UUG start-1 inactive.
Screening COCc1cn(CC[C@H]2CC[C@H](NC(=O)Nc3c(C)noc3C)[C@H](CO)O2)nn1 returned Yeast UUG start-1 194 and Yeast UUG start-2 inactive.
O=C(Cc1ccccn1)NCC[C@@H]1CC[C@H](NS(=O)(=O)c2ccc(Cl)cc2)[C@H](CO)O1 was read as Yeast UUG start-1 103 and Yeast UUG start-2 inactive.
O=C(Cc1ccccn1)NCC[C@H]1CC[C@@H](NS(=O)(=O)c2ccc(Cl)cc2)[C@@H](CO)O1 was read as Yeast UUG start-1 inactive.
For COc1cccc(-c2cn(CC[C@@H]3CC[C@H](NC(=O)CC4CC4)[C@@H](CO)O3)nn2)c1 the results were Yeast UUG start-1 155 and Yeast UUG start-2 inactive.
For C[C@H](CO)N1C[C@H](C)[C@H](CN(C)S(=O)(=O)c2cn(C)cn2)Oc2ccc(NS(=O)(=O)c3ccccc3)cc2CC1=O the results were Yeast UUG start-1 inactive.
For C[C@@H]1CN([C@@H](C)CO)C(=O)Cc2cc(NC(=O)Nc3ccc(F)cc3)ccc2O[C@H]1CN(C)S(C)(=O)=O the results were Yeast UUG start-1 inactive.
Screening COc1ccccc1C#Cc1ccc([C@H]2[C@H](C#N)N(C(=O)C3CCC3)[C@H]2CO)cc1 returned Yeast UUG start-1 inactive.
O=S(=O)(N[C@@H]1CC[C@H](CCn2cc(-c3cccnc3)nn2)O[C@@H]1CO)c1ccc(Cl)cc1 was read as Yeast UUG start-1 102 and Yeast UUG start-2 inactive.
`Cc1ccc(S(=O)(=O)N(C)C[C@H]2Oc3ncc(Br)cc3C(=O)N([C@@H](C)CO)C[C@H]2C)cc1` gave Yeast UUG start-1 108 and Yeast UUG start-2 inactive.
Screening Cc1ccc(S(=O)(=O)N(C)C[C@@H]2Oc3ncc(-c4ccncc4)cc3C(=O)N([C@@H](C)CO)C[C@H]2C)cc1 returned Yeast UUG start-1 200 and Yeast UUG start-2 inactive.
CCC(=O)N1C[C@H](C)[C@H](OC)CN(C)C(=O)c2ccc(NC(=O)c3ccc(F)cc3)cc2OC[C@H]1C was read as Yeast UUG start-1 inactive.
`COc1ccc(S(=O)(=O)N[C@H]2CC[C@@H](CC(=O)NCc3ccccc3F)O[C@H]2CO)cc1` gave Yeast UUG start-1 inactive.
Screening Cc1ccc(NC(=O)CSc2nnc([C@H](C)NC(=O)OC(C)(C)C)o2)c(C)c1 returned p-CIP stab down inactive, Exocytosis inh inactive, ABCB6 inh 2 inactive, Yeast UUG start-1 214 and Yeast UUG start-2 inactive.
For Cc1cccc(NC(=O)CSc2nnc([C@H](C)NC(=O)OC(C)(C)C)o2)c1C the results were p-CIP stab down inactive, Exocytosis inh inactive, ABCB6 inh 2 inactive, PKA-R1A act inactive, Yeast UUG start-1 inactive and PKA-R2B act inactive.
Screening CCCCC12CN3CC(C)(CN(C1)C3c1ccc([N+](=O)[O-])o1)C2=O (stereo not drawn) returned p-CIP stab down inactive, Exocytosis inh inactive, ABCB6 inh 2 inactive, PKA-R1A act inactive, Yeast UUG start-1 146, PKA-R2B act inactive and Yeast UUG start-2 inactive.
`C=CCO/N=C(/C)c1c(O)c(CC)c(-c2ccccc2)n(-c2ccccc2)c1=O` gave p-CIP stab down inactive, Exocytosis inh inactive, ABCB6 inh 2 inactive, PKA-R1A act inactive, Yeast UUG start-1 280, PKA-R2B act inactive and Yeast UUG start-2 inactive.
For CCc1c(O)c(/C(C)=N\O)c(=O)n(-c2ccccc2)c1-c1ccccc1 the results were p-CIP stab down inactive, Exocytosis inh inactive, ABCB6 inh 2 inactive, PKA-R1A act inactive, Yeast UUG start-1 inactive and PKA-R2B act inactive.
Screening Cc1cc(C(=O)CSc2nnc(-c3ccccc3)n2C)c(C)n1C returned p-CIP stab down inactive, Exocytosis inh inactive, ABCB6 inh 2 inactive, PKA-R1A act inactive, Yeast UUG start-1 inactive, PKA-R2B act inactive and Yeast UUG start-2 inactive.
`Cc1cc(C(=O)CSc2nnc3ccccn23)c(C)n1-c1ccccc1` gave p-CIP stab down inactive, Exocytosis inh inactive, ABCB6 inh 2 inactive, PKA-R1A act inactive and PKA-R2B act inactive.
For Cc1cc(C(=O)CSc2nnc(-c3ccncc3)n2-c2ccccc2)c(C)n1C the results were p-CIP stab down inactive, Exocytosis inh inactive, ABCB6 inh 2 inactive, PKA-R1A act inactive, PKA-R2B act inactive and Yeast UUG start-2 inactive.

Source: PubChem BioAssay
